Literature values as cited in patent US20230158100A1, “TREATMENT OF PANX1 ASSOCIATES DISEASES” (NURITAS LIMITED, priority 2020, published 2023).

Conditions: Werle and Bernkop-Schnürch 2006; cited from earlier work

**Q.** Which “prolonged plasma half life time compared to the native protein” value does the source give for “PEG(2, 40 K) conjugate of INF-alpha-2b: A PEG(2, 40 K) conjugate of INF-alpha-2b” here?
**A.** 330 fold
